{"source": "ChEMBL document CHEMBL4422622", "about": "“Identification of Mineralocorticoid Receptor Modulators with Low Impact on Electrolyte Homeostasis but Maintained Organ Protection” (J Med Chem, 2019)", "key": {"[1]": {"target": "T1, Mineralocorticoid receptor (Homo sapiens, UniProt P08235)", "T1 sequence (P08235 whole entry)": "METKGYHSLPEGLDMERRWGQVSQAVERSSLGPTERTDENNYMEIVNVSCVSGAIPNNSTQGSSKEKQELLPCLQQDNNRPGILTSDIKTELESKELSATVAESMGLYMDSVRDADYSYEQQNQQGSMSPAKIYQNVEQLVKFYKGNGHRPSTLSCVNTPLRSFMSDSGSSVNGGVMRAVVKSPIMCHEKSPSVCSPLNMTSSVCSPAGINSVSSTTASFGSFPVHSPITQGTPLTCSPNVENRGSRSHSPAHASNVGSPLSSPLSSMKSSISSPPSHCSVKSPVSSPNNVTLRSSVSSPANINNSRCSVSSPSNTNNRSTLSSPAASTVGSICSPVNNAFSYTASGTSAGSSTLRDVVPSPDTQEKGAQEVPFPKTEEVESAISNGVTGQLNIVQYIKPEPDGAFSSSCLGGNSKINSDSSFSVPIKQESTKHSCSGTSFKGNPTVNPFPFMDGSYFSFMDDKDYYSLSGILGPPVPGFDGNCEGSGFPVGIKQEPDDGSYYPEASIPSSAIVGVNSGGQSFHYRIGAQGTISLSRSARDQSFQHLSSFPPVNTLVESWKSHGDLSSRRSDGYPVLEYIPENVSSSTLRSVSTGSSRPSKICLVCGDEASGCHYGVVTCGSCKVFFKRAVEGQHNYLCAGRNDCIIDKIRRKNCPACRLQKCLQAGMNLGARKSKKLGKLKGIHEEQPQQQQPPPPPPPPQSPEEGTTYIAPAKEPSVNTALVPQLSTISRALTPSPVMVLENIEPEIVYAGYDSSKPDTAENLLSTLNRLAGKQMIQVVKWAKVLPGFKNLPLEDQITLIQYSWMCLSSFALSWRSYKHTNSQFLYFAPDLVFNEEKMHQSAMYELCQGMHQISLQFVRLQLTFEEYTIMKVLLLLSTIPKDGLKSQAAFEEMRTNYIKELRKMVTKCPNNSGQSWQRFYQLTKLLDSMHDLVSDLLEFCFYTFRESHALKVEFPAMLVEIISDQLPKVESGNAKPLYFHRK"}, "[2]": {"target": "T1, Mineralocorticoid receptor", "remark": "listed apart in the source"}, "[3]": {"target": "T1, Mineralocorticoid receptor", "remark": "listed apart in the source"}}}
{"compound": "CNC(=O)C[C@H]1COc2cc(Cl)ccc2N1C(=O)c1ccc2c(c1)NC(=O)CO2", "values": [{"measurement": "EC50", "setting": "[1]", "result": 1, "unit": "nM"}, {"measurement": "Ki", "setting": "[2]", "result": 3.16, "unit": "nM"}, {"measurement": "IC50", "setting": "[3]", "result": 31.6, "unit": "nM"}]}
